The entries are a selection whose mix differs from that of the whole data set. Some of these compounds have results that are not shown, active ones among them. Records with an inconclusive call do not appear. The source made the active and inactive calls. The call rests on the fitted dose curve; in most records, active means well fitted cell-killing curve with a large enough effect; inconclusive means small, poorly fitted or top-dose-only effect, or effect the other way; inactive means flat fitted curve, though single readings scatter.
Test: Cell viability qHTS assay in S16 Pmp22-F2sN cells; further: nearly all actives have a fitted effect of over 65% in size
Conditions: S16 Pmp22-F2sN Schwann cells (luciferase reporters placed in the Pmp22 gene) viability, CellTiter-Glo, 24 h; at 57.5 µM (top of the series)
Text: Assay Provider: Jim Inglese Ph.D. National Center for Advancing Translational Science, National Institutes of Health, Rockville, MD CMT is a heterogeneous group of neurological disorders that affect approximately 1 in 2,500 people. In particular, the most common form of CMT, CMT1A is genetically linked to the duplication of the PMP22 gene which leads to Schwann cell overexpression, thus manifesting itself as a typical case of dose-sensitive diseases. To identify small molecule compounds that can mediate the expression of PMP22 we developed a phenotypic assay screening strategy by utilizing genome editing techniques to construct Schwann cell lines containing novel reporter technology to monitor the transcriptional or translational regulation of PMP22. For high sensitivity we use a bioluminescent reporter system embedded in the 3' UTR of the PMP22 gene (S16(c9) Pmp22-F2sN) to identify compounds that inhibit gene expression. […] We can further discriminate the effect of all transcriptionally active molecules on PMP22 translation or stability with an assay that incorporates a short NLuc peptide (HiBiT) at the C-terminus of expressed PMP22 (S16(f8) PMP22-HiBiT) allowing alpha complementation and luminescence detection of membrane-associated PMP22 protein. These assays were screened against the NCATS Sytravon Library Collection. Miniaturization of these assays to 1536-well plate format for quantitative high throughput screening (qHTS) yielded rich data sets immediately from the qHTS assay (S16(c9) Pmp22-F2sN), when compared with data from a cell viability assay (Cell TiterGlo) to identify compounds that decreased the output signals through cellular toxicity to streamline the selection process of actives for subsequent characterization using the HiBiT assay (S16(f8) PMP22-HiBiT).
Cell viability assay in S16 Pmp22-F2sN cells PROTOCOL TABLE (format as described by Inglese J, Shamu CE and Guy RK. 2007) SEQUENCE No. (e.g., 1, 2, 3, etc.); […] (e.g., Cells, Incubation, Reagent, etc.); VALUE and DESCRIPTION. 1. Cells. Add 500-1,000 cells in 4 uL in growth media (DMEM High Glucose, No Phenol Red media + 10% heat-inactivated FBS + 1% Pen/Strep supplemented media) per well into Greiner 1536-well white/solid bottom high base, TC-treated plates. 2. Compounds. Library compounds and controls added at 23nL per well, transferred by Pin Tool. 3. Incubation. Incubate plates at 37C, 5% CO2, 95% RH for 24 h. 4. Reagent. Add 3uL CellTiter-Glo per well of Greiner 1536-well plates. 5. Incubation. Incubate plates at room temperature for 15 min., protect from light. 6. Detector. FLuc luminescence measured using CCD-based camera (Viewlux). NOTES (numbers refer to Sequence numbers above; values are from representative experiments) 6. Luminescence Read: Clear filter; Exposure = 1 sec, Gain = High, Speed = Slow, Binning = 2X REFERENCES: 1. Inglese J, Shamu CE and Guy RK, Reporting data from high throughput screening of small molecule libraries, Nature Chemical Biology, 2007, 3(8): 438-441. doi.org/10.1038/nchembio0807-438 2. Yasgar A, Shinn P, Jadhav A, Auld DS, Michael S, Zheng W, Austin CP, Inglese J and Simeonov A, Compound Management for Quantitative High-Throughput Screening. J. Assoc. Lab. Auto., 2008, 13: 79-89. doi: 10.1016/j.jala.2007.12.004
On the % scale 0 is the no-effect control and ±100 the full control effect.

With `COc1ccc(C(=O)NCC2(N(C)C)CCCCC2)cc1Cl` as the compound, how does the activity change, negative = cytotoxicity read?
The activity change, negative = cytotoxicity was inactive: -4.76%.

For `COc1cccc(C(=O)NCC2(N3CCOCC3)CCCCC2)c1`, which activity change, negative = cytotoxicity is on record?
The activity change, negative = cytotoxicity was inactive: 9.46%.

Which activity change, negative = cytotoxicity does the source give for `CC(C)Oc1ccc(C(=O)NCC2(N(C)C)CCCCC2)cc1` here?
The activity change, negative = cytotoxicity was inactive: 4%.

For `COc1cc(C(=O)NCC2(N(C)C)CCCCC2)cc(OC)c1OC`, which activity change, negative = cytotoxicity is on record?
Its activity change, negative = cytotoxicity is inactive: 0.53%.

Which activity change, negative = cytotoxicity does the source give for `Cc1cccc(C(=O)NCC2(N(C)C)CCCCC2)c1` here?
The activity change, negative = cytotoxicity was inactive: 9.98%.

For `CN(C)C1(CNC(=O)c2ccccc2F)CCCCC1`, which activity change, negative = cytotoxicity is on record?
Its activity change, negative = cytotoxicity is inactive: 15.9%.

Which activity change, negative = cytotoxicity does the source give for `CN(C)C1(CNC(=O)c2cccc(Cl)c2)CCCCC1` here?
Its activity change, negative = cytotoxicity is inactive: -2.35%.

For `CCCCOc1ccccc1C(=O)NCC1(N(C)C)CCCCC1`, which activity change, negative = cytotoxicity is on record?
Its activity change, negative = cytotoxicity is inactive: 11.1%.

Which activity change, negative = cytotoxicity does the source give for `CN(C)C1(CNC(=O)c2ccccc2[N+](=O)[O-])CCCCC1` here?
The activity change, negative = cytotoxicity was inactive: 13%.

With `CCOc1cccc(C(=O)NCC2(N(C)C)CCCCC2)c1` as the compound, how does the activity change, negative = cytotoxicity read?
Its activity change, negative = cytotoxicity is inactive: 11.6%.
